In brackets after ≈: the same amount, converted by molar mass.

Assay [1] has as its system E. coli NRZ-00302 (metallo β-lactamase NDM-1). The assay is described as follows: MIC, broth microdilution (CLSI), CAMHB. Conditions: Escherichia coli. On the technique in general: In broth dilution the organism is exposed to a series of concentrations in liquid medium.
The subject of assay [2] is E. coli GNS-2601 (ESBL CTX-M-15). The assay is described as follows: MIC, broth microdilution (CLSI), CAMHB. Conditions: Escherichia coli.
In assay [3] the test system is K. pneumoniae NRZ-00002 (OXA-48). The assay is described as follows: MIC, broth microdilution (CLSI), CAMHB. The following applies: Klebsiella pneumoniae.
Assay [4] deals with K. pneumoniae NRZ-00535 (VIM-1). The assay is described as follows: MIC, broth microdilution (CLSI), CAMHB. Conditions: Klebsiella pneumoniae.
In assay [5] the test system is K. pneumoniae NRZ-00103 (KPC-2). The assay is described as follows: MIC, broth microdilution (CLSI), CAMHB. The following applies: Klebsiella pneumoniae.
The subject of the next assay is P. mirabilis ATCC 9240. The assay is described as follows: MIC, broth microdilution (CLSI), CAMHB. Conditions: Proteus mirabilis, ATCC9240.
Assay [6] relates to P. mirabilis NRZ-00185 (AmpC, type CMY-2). The assay is described as follows: MIC, broth microdilution (CLSI), CAMHB. The following applies: Proteus mirabilis.
A further assay concerns P. aeruginosa ATCC 10145. The assay is described as follows: MIC, broth microdilution (CLSI), CAMHB. Conditions: Pseudomonas aeruginosa, ATCC10145.
In assay [7] the test system is P. aeruginosa NRZ-00425 (VIM-1). The assay is described as follows: MIC, broth microdilution (CLSI), CAMHB. The following applies: Pseudomonas aeruginosa.
The subject of assay [8] is E. cloacae NRZ-00239 (VIM-1). The assay is described as follows: MIC, broth microdilution (CLSI), CAMHB. Conditions: Enterobacter cloacae.
Assay [9] relates to E. cloacae NRZ-00239 (VIM-1 β-lactamase). The assay is described as follows: Checkerboard titration of Compound 1 and colistin. The following applies: Enterobacter cloacae, read-out: MIC (agent alone).
The test system of a further assay is E. cloacae ATCC 13047. The assay is described as follows: Checkerboard titration of Compound 1 and colistin. Conditions: listed as MCB.

Turning to `CC(=O)NC[C@H]1CN(c2ccc(OCC3(O)CCN(c4cc5c(cc4F)c(=O)c(C(=O)O)cn5C4CC4)CC3)c(F)c2)C(=O)O1` [Compound 1, 7-(4-{4-[(5S)-5-(acetylamino-methyl)-2-oxo-oxazolidin-3-yl]-2-fluoro-phenoxymethyl}-4-hydroxy-piperidin-1-yl)-1-cyclopropyl-6-fluoro-4-oxo-1,4-dihydro-quinoline-3-carboxylic], the minimal inhibitory concentration (MIC) – broadly, the least concentration at which growth counts as inhibited – in [1] was 256 µg/mL (≈ 409 µM); in assay [2], 256 µg/mL (≈ 409 µM); in assay [3] it was 256 µg/mL (≈ 409 µM); in [4], > 256 µg/mL; in [5], 256 µg/mL (≈ 409 µM); against P. mirabilis ATCC 9240 it was 256 µg/mL (≈ 409 µM). For the same molecule, the MIC in assay [6] turned out to be 256 µg/mL (≈ 409 µM); in the assay on P. aeruginosa ATCC 10145, 256 µg/mL (≈ 409 µM); in assay [7] it was 256 µg/mL (≈ 409 µM); in assay [8], 256 µg/mL (≈ 409 µM); in assay [9], 256 µg/mL.

Take `CC(=O)NC[C@H]1CN(c2ccc(OCC3(O)CCN(c4cc5c(cc4F)c(=O)c(C(=O)O)cn5C4CC4)CC3)c(F)c2)C(=O)O1` [Compound 1, 7-(4-{4-[(5S)-5-(acetylamino-methyl)-2-oxo-oxazolidin-3-yl]-2-fluoro-phenoxymethyl}-4-hydroxy-piperidin-1-yl)-1-cyclopropyl-6-fluoro-4-oxo-1,4-dihydro-quinoline-3-carboxylic acid]: the “MIC (agent alone)” value in the assay on E. cloacae ATCC 13047 was 256 µg/mL.

The values are drawn from US20160113921A1, “COMBINATION THERAPY COMPRISING OXAZOLIDINONE-QUINOLONES FOR USE IN TREATING BACTERIAL INFECTIONS” (MORPHOCHEM AKTIENGESELLSCHAFT FÜR KOMBINATORISCHE CHEMIE, priority 2013, published 2016).
